Reference: paper PMC2784894 (Chemistry & biology, 2009)

Chains of the proteins cited; added tags and fusions are not shown. Residues count along the entry.
UniProt O08808, 552-1255 limits assumed: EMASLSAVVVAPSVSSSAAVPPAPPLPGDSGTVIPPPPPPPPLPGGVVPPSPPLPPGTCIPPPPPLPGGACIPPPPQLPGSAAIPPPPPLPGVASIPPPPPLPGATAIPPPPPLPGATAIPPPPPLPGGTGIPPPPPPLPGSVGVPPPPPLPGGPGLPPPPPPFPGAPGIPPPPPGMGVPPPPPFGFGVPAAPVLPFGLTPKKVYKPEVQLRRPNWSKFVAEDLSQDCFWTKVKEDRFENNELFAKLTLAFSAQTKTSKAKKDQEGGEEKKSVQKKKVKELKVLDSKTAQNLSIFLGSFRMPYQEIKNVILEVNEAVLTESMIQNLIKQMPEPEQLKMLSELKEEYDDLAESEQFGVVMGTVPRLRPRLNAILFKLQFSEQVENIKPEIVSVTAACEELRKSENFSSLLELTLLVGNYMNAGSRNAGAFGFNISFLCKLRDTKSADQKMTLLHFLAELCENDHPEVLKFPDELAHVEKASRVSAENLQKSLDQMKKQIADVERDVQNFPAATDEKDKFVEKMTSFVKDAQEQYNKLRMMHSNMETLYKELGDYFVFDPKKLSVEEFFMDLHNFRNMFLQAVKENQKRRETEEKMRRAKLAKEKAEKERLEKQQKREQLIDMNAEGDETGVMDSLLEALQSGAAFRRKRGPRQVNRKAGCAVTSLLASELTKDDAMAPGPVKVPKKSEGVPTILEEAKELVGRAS

Key:
[1] = tested on: fission yeast actin cytoskeleton; experiment: fission yeast actin cytoskeleton imaging; settings: for effect on filamentous actin structures (GFP-CHD): 30 minutes at 25° C
[2] = target: GST-mDia1(FH1FH2) (Mus musculus, UniProt O08808); experiment: TIRF microscopy of filaments assembled from formin immobilized on beads; settings: 100 μM SMIFH2, by 375 seconds; slightly more than four without SMIFH2
[3] = tested on: formins from evolutionarily diverse organisms including yeast, nematode worm and mice; experiment: formin-mediated actin assembly in vitro, diverse formins; settings: C. elegans CYK-1, S. pombe Cdc12, S. pombe Fus1, S. cerevisae Bni1, M. musculus mDia2
[4] = target: T1, Cdc12 (Schizosaccharomyces pombe, UniProt Q10059); experiment: formin binding to pre-assembled barbed ends; settings: concentration dependent, absence of profilin
T1 sequence (Q10059 882-1390 limits assumed): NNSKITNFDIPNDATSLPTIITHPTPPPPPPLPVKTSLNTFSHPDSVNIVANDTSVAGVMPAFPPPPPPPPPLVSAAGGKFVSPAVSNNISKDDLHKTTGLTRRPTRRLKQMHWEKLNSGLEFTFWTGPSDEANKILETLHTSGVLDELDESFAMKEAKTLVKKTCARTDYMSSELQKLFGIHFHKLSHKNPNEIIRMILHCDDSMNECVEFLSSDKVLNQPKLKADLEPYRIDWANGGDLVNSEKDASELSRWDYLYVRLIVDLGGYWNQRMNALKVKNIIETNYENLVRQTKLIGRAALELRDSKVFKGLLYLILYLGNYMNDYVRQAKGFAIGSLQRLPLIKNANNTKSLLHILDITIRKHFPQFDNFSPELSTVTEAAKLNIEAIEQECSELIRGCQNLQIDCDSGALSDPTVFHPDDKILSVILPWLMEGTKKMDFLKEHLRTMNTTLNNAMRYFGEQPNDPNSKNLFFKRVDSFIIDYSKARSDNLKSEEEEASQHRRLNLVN

[5] = tested on: Cdc12 and mDia2; experiment: end-to-end annealing of actin filaments in the presence of formin; settings: filaments severed in the presence of Cdc12, or Cdc12- and mDia2-nucleated seeds
[6] = tested on: mDia1(FH1FH2) or mDia2(FH1FH2); settings: at a concentration of 10 μM
[7] = target: CYK-1 (Caenorhabditis elegans, UniProt Q7JP75); experiment: pyrene-actin assembly fluorescence; format: biochemical; settings: 2.5 μM actin monomer, 100 nM formin, pH 7.0

## Cc1[nH]c2ccccc2c1CCNC(=O)c1ccccc1F [CK-666, reference compound]
[1]; 100 μM
  effect on filamentous actin structures (GFP-CHD): specifically disassembled Arp2/3 complex-dependent actin patches

## O=C1NC(=S)N(c2cccc(Br)c2)C(=O)/C1=C/c1ccco1 [SMIFH2]
[2]
  average number of filaments per formin-absorbed bead: less than 0.05 filaments
[3]
  actin assembly by evolutionarily diverse formin FH1FH2 constructs: inhibits
[4]
  binding of Cdc12 to the barbed end: prevents Cdc12 from binding to the barbed end
[5]
  end-to-end annealing of formin-associated filaments: does not allow formin to inhibit the end-to-end annealing
[1]; 10 μM SMIFH2, 30 minutes at 25° C
  cells with observable actin capping protein-labeled actin patches (Acp2-GFP): 100%
[1]; 25 μM
  effect on filamentous actin structures (GFP-CHD): disassembled formin-dependent actin cables and contractile rings, but not actin patches
[6]
  inhibition of formin-mediated actin assembly: at least 50%

## O=C1NC(=S)N(c2cccc(Br)c2)C(=O)C1=Cc1ccco1 [compound 1, SMIFH2]
[7]
  maximum polymerization rate at 50 μM: SMIFH2 also inhibits actin assembly by evolutionarily diverse formin FH1FH2 constructs including C. elegans CYK-1
